The test system of the experiment is Hepatitis C virus replicon (1b) constitutively expressed in Clone A cells (Huh-7 derived). As to the kind of experiment: Hepatitis C virus replicon inhibition in Clone A cells, NS5a ELISA. It counts as cell-based. Conditions: 3 days, reference compound. How it is done: the compounds of the present invention to inhibit Hepatitis C virus replicon constitutively expressed in a human liver cell line was established by the following experimental procedure:
Clone A cells (licensed from Apath, LLC) are derived from Huh-7 cells (human hepatoma cell line) and constitutively express the HCV replication proteins with concomitant amplification the HCV replicon (1b) genome. Cells are maintained and passaged in DMEM/10% FCS/1 mg/ml G418 (Geneticin from Gibco #11811-023; other media components as described below in “elisa media”). Care should be taken to maintain cell monolayers at a subconfluent state by 1:3 or 1:4 passages every 3-4 days. The replicon is extremely sensitive to the cellular metabolism/proliferation state and replicon copy number will rapidly decline in confluent monolayers (resting cells). Under ideal conditions each cell has, on average, 1000 copies of the HCV replicon genome.
10 μl of compounds (in DMSO) are added to column 3 of the mother plate. 5 μl of DMSO are added to the remaining columns. Mother plates are set aside until ready for serial dilution to be performed.
Prepare cell plates (daughter plates) by adding 52 μl of Elisa media to each well.
In Mother plates, serially transfer 50 μl/well from column 3 through column 12.
Transfer 8 μl from mother plate to daughter plates (all 96 wells). […]
Read plates with optical density (O.D.) 450 filter. […]

With “Interferon-a2: reference compound of the HCV replicon ELISA assay”, the IC50 is 4-30 U/ml.

The record behind these values is patent publication US20070219212A1, “Pyranouidole Derivatives and the Use Thereof for the Treatment of Hepatitis C Virus Infection or Disease” (priority 2004, published 2007).
